Results: PubChem BioAssay AID2300 (The Scripps Research Institute Molecular Screening Center, 2010)
Only a part is listed here, and it is no random draw. The source made the active and inactive calls.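 The calls were made as follows: active = percent inhibition above the cutoff of mean plus 3 SD of all tested compounds, set per screening campaign (cut at about 20% in these data); inactive = the rest.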

The chains behind the UniProt entries cited, without tags or fusion partners.
UniProt Q9Y5X4, whole entry: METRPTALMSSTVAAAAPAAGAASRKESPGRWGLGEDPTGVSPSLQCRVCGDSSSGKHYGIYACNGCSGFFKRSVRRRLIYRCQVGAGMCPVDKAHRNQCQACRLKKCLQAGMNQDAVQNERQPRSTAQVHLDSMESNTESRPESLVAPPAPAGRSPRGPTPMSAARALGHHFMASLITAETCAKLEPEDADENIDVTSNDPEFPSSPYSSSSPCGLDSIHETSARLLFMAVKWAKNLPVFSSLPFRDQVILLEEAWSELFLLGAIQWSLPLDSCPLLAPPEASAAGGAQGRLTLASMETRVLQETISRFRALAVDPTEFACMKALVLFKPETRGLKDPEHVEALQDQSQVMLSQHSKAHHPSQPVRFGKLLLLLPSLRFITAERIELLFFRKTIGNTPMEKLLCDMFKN

Target: Photoreceptor-specific nuclear receptor (Homo sapiens) (UniProt Q9Y5X4)
Assay: disruption of NR2E3 corepressor interaction – biochemical, TR-FRET, GST-NR2E3, biotin-RetCOR, NR2E3 agonist project, primary screen (AID 2300);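 also: 0% = DMSO wells and 100% = biotin wells as full block of FRET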
Conditions: 1536-well, at 4.78 µM, stronger effect = higher value
Outline: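 Material – GST-tagged NR2E3 plus biotinylated RetCOR corepressor · Quantity – NR2E3 fusion 1.35 nM · Times – 5 h incubation at 4 °C · Medium – pH 7.5 Tris-based buffer · Technique – TR-FRET, Eu(K)-anti-GST donor, streptavidin-D2 acceptor, ex 340, em 617/671 nm · Benchmarks – high control biotin, low control 0.6% DMSO · Format – 1536-well plates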

Compound | inhibition of corepressor binding
COc1ccc(C(=O)NCC2(N3CCCCC3)CCCCC2)cc1 | inactive: 2.51%
CC(C)(C)OC(=O)N1CCC(N(C(=O)c2ccccc2)c2ccc(F)cc2)CC1 | inactive: 1.6%
COc1ccc(C(=O)NCC2(N3CCCCC3)CCCCC2)c(OC)c1OC | inactive: 1.8%
O=C(NCC1(N2CCCCC2)CCCCC1)c1ccc(=O)[nH]c1 | inactive: -3.05%
O=C(NCC1(N2CCCCC2)CCCCC1)c1cccs1 | inactive: -1.22%
CSc1ccccc1C(=O)NCC1(N2CCCCC2)CCCCC1 | inactive: 2.3%
O=C(NCC1(N2CCCCC2)CCCCC1)c1ccc(Cl)nc1 | inactive: 3.07%
Cc1cc(C)cc(N(C(=O)c2ccccc2)C2CCN(C(=O)OC(C)(C)C)CC2)c1 | inactive: 3.32%
O=C(NCC1(N2CCOCC2)CCCCC1)c1cc2ccccc2o1 | inactive: 2.43%
O=C(NCC1(N2CCCCC2)CCCCC1)c1ccc(Cl)s1 | inactive: 0.91%
N#CC1(Nc2ccccc2)CCN(Cc2ccccc2)CC1 | inactive: -1.44%
O=C(OC1CN2CCC1CC2)C1c2ccccc2Oc2ccccc21 (stereo unspecified) | inactive: 5.21%
COc1ccc(Cl)cc1C(=O)NCC1(N2CCOCC2)CCCCC1 | inactive: 0.24%
CCOC(=O)N1CCC(Nc2ccc(OC)cc2)CC1 | inactive: 0.38%
CCOc1ccc(C)cc1CN(CCCl)CCCl | inactive: 3.01%
O=C(NCC1(N2CCCCC2)CCCCC1)c1ccc(F)cc1 | inactive: -0.36%
COc1ccc(NC2CCN(CCc3ccccc3)CC2)c(OC)c1 | inactive: -0.09%
CCOC(=O)N1CCC(Nc2cccc(C)c2)CC1 | inactive: -1.95%
Cc1ccc(OCC(C)C)c(CN(CCCl)CCCl)c1 | inactive: 1.06%
O=C(NCC1(N2CCCCC2)CCCCC1)c1ccc(OC(F)F)cc1 | inactive: 3.64%
CCN1CCC(Nc2ccc(Cl)cc2)CC1 | inactive: 1.53%

Compound | inhibition of corepressor binding
N#CC1(Nc2ccccc2)CCN(CCc2ccccc2)CC1 | inactive: -0.35%
O=C(NCC1(N2CCCCC2)CCCCC1)c1cccc([N+](=O)[O-])c1 | inactive: -2.93%
O=C(NCC1(N2CCCCC2)CCCCC1)c1cccc(C(F)(F)F)c1 | inactive: -1.1%
O=C(NCC1(N2CCOCC2)CCCCC1)c1cc(=O)[nH]c2ccccc12 | inactive: 3.17%
COc1cc(C(=O)NCC2(N3CCCCC3)CCCCC2)ccc1OC(F)F | inactive: -1.09%
COc1ccc(NC2CCN(C(=O)OC(C)(C)C)CC2)cc1 | inactive: -1.88%
CN1CCN(CCOC(=O)C(O)(c2ccccc2)c2ccccc2)CC1 | inactive: -1.02%
CC(C)c1ccc(NC2CCN(C(=O)OC(C)(C)C)CC2)cc1 | inactive: -3.63%
COc1ccc(CN(CCCl)CCCl)cc1Cl | inactive: -1.93%
CN(C)c1cccc(C(=O)NCC2(N3CCCCC3)CCCCC2)c1 | inactive: 4.15%
COc1cc(OC)c(C(=O)NCC2(N(C)C)CCCCC2)cc1OC | inactive: 3%
CN1CCC(Nc2cccc(F)c2)CC1 | inactive: -0.62%
O=C(NCC1(N2CCCCC2)CCCCC1)c1cncc(Br)c1 | inactive: -1.62%
O=C(NCC1(N2CCOCC2)CCCCC1)c1cc(Br)ccc1Cl | inactive: 4.42%
COc1ccc(C(=O)NCC2(N3CCOCC3)CCCCC2)cc1OC | inactive: 5.13%
CCOC(=O)N1CCC(Nc2ccc(C)cc2)CC1 | inactive: 2.39%
N/C(=N\O)c1c(N)no[n+]1[O-] | inactive: -1.45%
CCc1cc(C(=O)NCC2(N3CCCCC3)CCCCC2)sc1C | inactive: 0.84%
O=C(OC1CN2CCC1CC2)C1c2ccccc2C=Cc2ccccc21 (stereo unspecified) | inactive: -2.33%
N#Cc1ccc(C(=O)NCC2(N3CCCCC3)CCCCC2)cc1 | inactive: 4.62%
CC(C)(C)OC(=O)N1CCC(N(C(=O)c2ccccc2)c2ccc(Cl)cc2)CC1 | inactive: -2.33%

Compound | inhibition of corepressor binding
CN(C)C1(CNC(=O)c2cccc(C#N)c2)CCCCC1 | inactive: -1.76%
c1ccc(CN2CCC(Nc3ccccc3)CC2)cc1 | inactive: 0.29%
CCCN1CCC(Nc2cc(OC)cc(OC)c2)CC1 | inactive: 4.48%
COc1cc(OC)cc(C(=O)NCC2(N3CCCCC3)CCCCC2)c1 | inactive: -2.38%
Cc1ccc(C(=O)NCC2(N3CCCCC3)CCCCC2)o1 | inactive: -4.77%
Fc1ccccc1NC1CCN(Cc2ccccc2)CC1 | inactive: 1.42%
CCN1CCC(Nc2cccc(F)c2)CC1 | inactive: -4.25%
O=C(NCC1(N2CCCCC2)CCCCC1)c1ccco1 | inactive: 0.2%
CN(C)c1ccc(C(=O)NCC2(N3CCCCC3)CCCCC2)cc1 | inactive: -1.09%
CCOc1ncccc1C(=O)NCC1(N2CCOCC2)CCCCC1 | inactive: 2.5%
CN1CCC(Nc2ccc(F)c(Cl)c2)CC1 | inactive: -0.88%
CC(C)(C)OC(=O)N1CCC(Nc2ccccc2)CC1 | inactive: -1.09%
O=C(O)C1(Nc2ccccc2)CCN(Cc2ccccc2)CC1 | inactive: -4.14%
CCCOc1ccc(C(=O)NCC2(N(C)C)CCCCC2)cc1 | inactive: 3.04%
COc1cccc(C(=O)N(c2cc(C)cc(C)c2)C2CCN(C(=O)OC(C)(C)C)CC2)c1 | inactive: 2.86%
COc1cc(OC)cc(C(=O)NCC2(N3CCOCC3)CCCCC2)c1 | inactive: 2.27%
CCC(CO)(C(=O)OC1CN2CCC1CC2)c1ccccc1 (stereo unspecified) | inactive: -2.91%
CN1CCC(Nc2ccc(Cl)cc2)CC1 | inactive: 3.48%
CCCOc1ccc(C)cc1CN(CCCl)CCCl | inactive: -2.26%
